Results on two compounds are retold here after patent US20080051457A1, “Optically Active Phthalamide Derivative, Agricultural or Horticultural Insecticide, and Method of Using the Same” (priority 2004, published 2008).

This data set in a line: logP (pH2.3), physical properties of Tables 1 to 3. It counts as physicochemical. The following applies: Table 1. From the text:
Representative compounds as optically active phthalamide compounds represented by the formula (I) of the present invention, which can be produced in the same manner as in examples, are shown in Tables 1 to 3. However, the present invention is not limited to these compounds. In the tables, the term “physical properties” means a melting point or logp. The symbol “Me” represents a methyl group, “Et” represents an ethyl group, “Pr” represents a propyl group, “-n” represents normal, and “-i” represents iso.

For the compound `CCS(=O)(=O)C[C@H](C)NC(=O)c1c(I)cccc1C(=O)Nc1ccc(C(F)(F)C(F)(F)F)c(Cl)c1C` [Compound 1-113], the “Physical properties: logP” value amounted to 3.28.

Regarding `Cc1c(NC(=O)c2cccc(I)c2C(=O)N[C@@H](C)CS(C)(=O)=O)ccc(C(F)(F)C(F)(F)F)c1Cl` [Compound 1-146], the “Physical properties: logP” value was 3.10.
